Literature values in patent US20260183305A1, “METHYLENE BLUE FOR USE IN THERAPY OF HEPATITIS B AND/OR HEPATITIS D INFECTION” (priority 2022, published 2026).

Experiments:
[1] = 5 mg/ml solution, pH higher than 4.5; cited from earlier work
[2] = soldiers, several weeks, malaria prophylaxis; cited from earlier work
[3] = after oral administration; cited from earlier work

CN(C)c1ccc2nc3ccc(N(C)C)cc3[s+]c2c1.[Cl-] [MB, [7-(dimethylamino)phenothiazin-3-ylidene]-dimethylazanium, chloride]
long term stability [1]: compromised at higher pH
dose received without major side effects [2]: more than 400 mg of MB per day
time of peak plasma concentrations [3]: two
